The chains behind the UniProt entries cited, without tags or fusion partners. Residues count along the entry.
UniProt P00742, 41-179 limits assumed: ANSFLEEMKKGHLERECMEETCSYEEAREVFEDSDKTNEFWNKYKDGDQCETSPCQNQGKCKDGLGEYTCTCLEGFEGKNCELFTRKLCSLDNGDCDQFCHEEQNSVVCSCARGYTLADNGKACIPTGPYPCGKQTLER
UniProt P00742, 235-488 limits assumed: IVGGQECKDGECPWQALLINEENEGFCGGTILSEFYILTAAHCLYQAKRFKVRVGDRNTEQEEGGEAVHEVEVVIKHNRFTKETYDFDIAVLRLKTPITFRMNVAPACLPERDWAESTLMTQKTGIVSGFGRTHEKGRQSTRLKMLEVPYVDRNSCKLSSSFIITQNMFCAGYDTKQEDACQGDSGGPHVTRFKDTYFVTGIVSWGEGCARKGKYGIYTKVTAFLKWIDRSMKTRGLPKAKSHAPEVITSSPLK

In ChEMBL document CHEMBL1136571, “Design, synthesis and structure-activity relationships of benzoxazinone-based factor Xa inhibitors” (Bioorg Med Chem Lett, 2003):

Target: Coagulation factor X (Homo sapiens, UniProt P00742)
Assay: Inhibitory concentration to factor Xa

With `CC(=N)N1CCC(Oc2ccc(N(Cc3cc(C)nn3-c3cccc(C(=N)N)c3)S(C)(=O)=O)cc2)CC1` the IC50 was 6.92 µM.
